Source: PubChem BioAssay AID797 (University of Pittsburgh Molecular Library Screening Center, 2007)
Only a part is listed here, and it is no random draw. Activity calls are given as the source filed them. Cut-off read from the data, not from the text of the source: active = inhibition above about 50%; inactive = the rest.

Sequences of proteins named here, by UniProt entry; tags and fusion partners are left off.
UniProt Q15139, whole entry: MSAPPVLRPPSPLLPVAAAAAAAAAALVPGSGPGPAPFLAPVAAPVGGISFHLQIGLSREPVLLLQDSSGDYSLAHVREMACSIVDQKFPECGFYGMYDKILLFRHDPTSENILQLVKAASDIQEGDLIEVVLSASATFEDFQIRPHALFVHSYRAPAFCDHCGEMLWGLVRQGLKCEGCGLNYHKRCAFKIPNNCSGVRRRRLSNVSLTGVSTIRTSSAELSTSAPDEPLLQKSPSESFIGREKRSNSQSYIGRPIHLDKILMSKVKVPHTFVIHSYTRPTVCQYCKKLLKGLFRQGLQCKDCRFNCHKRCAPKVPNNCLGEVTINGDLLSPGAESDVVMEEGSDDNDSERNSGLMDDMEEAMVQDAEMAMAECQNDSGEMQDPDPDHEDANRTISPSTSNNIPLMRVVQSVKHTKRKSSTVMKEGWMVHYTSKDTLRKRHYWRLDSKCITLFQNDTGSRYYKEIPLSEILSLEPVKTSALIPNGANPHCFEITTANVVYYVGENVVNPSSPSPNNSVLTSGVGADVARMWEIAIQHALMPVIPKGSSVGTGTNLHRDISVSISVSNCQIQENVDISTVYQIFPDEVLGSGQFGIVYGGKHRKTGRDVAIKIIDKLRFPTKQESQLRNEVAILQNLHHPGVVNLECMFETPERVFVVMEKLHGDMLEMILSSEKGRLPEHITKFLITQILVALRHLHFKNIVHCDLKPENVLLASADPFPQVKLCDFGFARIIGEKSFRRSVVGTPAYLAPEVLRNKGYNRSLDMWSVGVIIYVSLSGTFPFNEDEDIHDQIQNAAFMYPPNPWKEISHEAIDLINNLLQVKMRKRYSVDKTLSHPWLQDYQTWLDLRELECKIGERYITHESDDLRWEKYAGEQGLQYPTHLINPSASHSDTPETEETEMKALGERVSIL

Biological target: Serine/threonine-protein kinase D1 (Homo sapiens) (UniProt Q15139)
Assay: inhibitors of human PKD1 kinase, biochemical, fluorescence polarization (AID 797)
Conditions: PKD1 kinase fluorescence polarization assay; hits give high values; concentration not given here

Row | Compound | inhibition
1 | Cc1cccc(OCC(=O)OC2CN3CCC2CC3)c1 (stereo unspecified) | inactive: -2.92%
2 | Cc1nc2ccc3ccccc3c2s1.O=[N+]([O-])c1cc([N+](=O)[O-])c(O)c([N+](=O)[O-])c1 | inactive: -10.4%
3 | CC1(CBr)Cn2c(nc3ccccc3c2=O)S1 (stereo unspecified) | inactive: -4.47%
4 | CC(C)/C=N\N=C(\N)N[N+](=O)[O-] | inactive: -3.98%
5 | O=[N+]([O-])c1cc([N+](=O)[O-])c(-n2nnc3ccccc32)c([N+](=O)[O-])c1 | inactive: 3.7%
6 | O=P1(Nc2ccccn2)COc2ccccc2OC1 | inactive: 10.8%
7 | Clc1n[nH]nc1-c1nn[nH][15n]1 | inactive: -3.01%
8 | COc1ccccc1OP(C)(=O)Nc1c(C)cccc1C (stereo unspecified) | inactive: 0.15%
9 | CN1CCCCC1COC(=O)C1(O)c2ccccc2CCc2ccccc21 (stereo unspecified) | inactive: 8.93%
10 | O=P1(Nc2ncccn2)COc2ccccc2OC1 | inactive: -3%
11 | Cc1ccc(OCC(=O)OC2CN3CCC2CC3)cc1 (stereo unspecified) | inactive: -2.16%
12 | O=P1(Nc2ccc(Br)cn2)COc2ccccc2OC1 | inactive: -0.16%
13 | CCCOc1ccc(NP(C)(=O)Oc2ccc(Cl)cc2)cc1 (stereo unspecified) | inactive: -0.55%
14 | CP(=O)(Nc1ccc(SC(F)(F)F)cc1)Oc1ccccc1 (stereo unspecified) | inactive: -8.72%
15 | COc1cc(C2NCCC3(OCCO3)C2(C)C)cc(OC)c1OC.O=[N+]([O-])c1cc([N+](=O)[O-])c(O)c([N+](=O)[O-])c1 (stereo unspecified) | inactive: 0.38%
16 | CC1CCC(C(C)C)C(OP(=O)(Nc2ccccn2)c2ccccc2)C1 (stereo unspecified) | inactive: 7.36%
17 | Cc1nn(-c2ccccc2)c2c1P(=O)(N1CCOCC1)N(C)C(c1ccccc1)=N2 (stereo unspecified) | inactive: -1.06%
18 | CN(C)C1(CNC(=O)c2ccc(S(C)(=O)=O)cc2)CCCCC1 | inactive: -9.69%
19 | CC(=O)NC(SC(=S)N(C)C)C(Cl)(Cl)Cl (stereo unspecified) | inactive: -7.97%
20 | O=[N+]([O-])c1cc([N+](=O)[O-])c(NCC2CCS(=O)(=O)C2)c([N+](=O)[O-])c1 (stereo unspecified) | inactive: -3.68%
21 | C(Cc1nn[nH]n1)Cc1nn[nH]n1 | inactive: -13.6%
22 | O=C(OC1CN2CCC1CC2)c1cccc(Cl)c1 (stereo unspecified) | inactive: 6.35%
23 | COc1ccc(OP(C)(=O)Nc2cccc(Br)c2)cc1 (stereo unspecified) | inactive: 0.31%
24 | O=P(Nc1ccccn1)(c1ccc(Br)cc1)c1ccc(Br)cc1 | inactive: 2.51%
25 | CN(C)CCOC(=O)C(O)(c1ccccc1)C1CCCCC1 (stereo unspecified) | inactive: -1.99%
26 | COc1ccc(NP(C)(=O)Oc2ccccc2OC)cc1 (stereo unspecified) | inactive: -5.62%

Row | Compound | inhibition
27 | CP(=O)(Nc1ccc2c(c1)OCCO2)Oc1ccccc1 (stereo unspecified) | inactive: -6.05%
28 | Cc1ccccc1NP(C)(=O)Nc1ccccc1C | inactive: 6.58%
29 | CC(C)C(=O)NC(Sc1ccccc1)C(Cl)(Cl)Cl (stereo unspecified) | inactive: -10.1%
30 | O=P(Nc1nccs1)(c1ccccc1)c1ccccc1 | inactive: -3.81%
31 | CCOP(C)(=S)SCC(=O)NC(C)(CC)C(=O)O (stereo unspecified) | inactive: -1.19%
32 | c1nnnn1CCn1cnnn1 | inactive: 15.7%
33 | O=C(OCCN1CCN(CCOCc2ccccc2)CC1)C(O)(c1ccccc1)c1ccccc1 | inactive: -3.05%
34 | CC(=O)Nc1ccc(Oc2c([N+](=O)[O-])cc([N+](=O)[O-])cc2[N+](=O)[O-])cc1 | inactive: -3.93%
35 | CCOc1ccc(C2=NCC(CBr)S2)cc1 (stereo unspecified) | inactive: -2.71%
36 | O=P1(Nc2nc3ccc(Cl)cc3s2)COc2ccccc2O1 (stereo unspecified) | inactive: -6.69%
37 | CP(=O)(Nc1ccccc1F)Oc1ccccc1 (stereo unspecified) | inactive: 2.15%
38 | CC(C)c1ccc(OP(C)(=O)Nc2ccc(SC(F)(F)F)cc2)cc1 (stereo unspecified) | inactive: -5.35%
39 | CC(C)(C)C(=O)NC(Sc1ccccc1)C(Cl)(Cl)Cl (stereo unspecified) | inactive: -4.58%
40 | Cc1ccc(OP(=O)(Nc2ccccn2)Oc2ccc(C)cc2)cc1 | inactive: -8.66%
41 | CC(=O)NC(SC(=S)N(CC(C)C)CC(C)C)C(Cl)(Cl)Cl (stereo unspecified) | inactive: -4.15%
42 | COC(=O)c1cc2c(s1)N=C(c1ccccc1)N(C)P2(=O)N1CCOCC1 (stereo unspecified) | inactive: 2.58%
43 | CCN(CC)CCCOC(=O)C(O)(c1ccccc1)C1CCCCC1 (stereo unspecified) | inactive: 5.39%
44 | CCC(=O)N1C2C3N(C(=O)CC)C1C1N(C(=O)CC)C(C(N1C(=O)CC)N3C(=O)CC)N2C(=O)CC | inactive: -11.9%
45 | CP(=O)(Nc1ccccc1)Oc1ccc(F)cc1 (stereo unspecified) | inactive: -5.24%
46 | O=c1c2cc([N+](=O)[O-])ccc2[nH]c2c([N+](=O)[O-])cc([N+](=O)[O-])cc12 | inactive: -1.14%
47 | CCNC(=S)/N=C(\N)N[N+](=O)[O-] | inactive: 1.54%
48 | O=C(NC1CCS(=O)(=O)C1)NP(=S)(Oc1ccccc1)Oc1ccccc1 (stereo unspecified) | inactive: 3.96%
49 | CCOC(=O)NC(Sc1ccccc1)C(Cl)(Cl)Cl (stereo unspecified) | inactive: -14.8%
50 | c1ccc(-c2nn[nH]n2)c(-c2nn[nH]n2)c1 | inactive: -0.5%
51 | CCOC(=O)c1ccc(NP(C)(=O)Oc2ccc(F)cc2)cc1 (stereo unspecified) | inactive: -10.3%
